For one molecule, EC50 results are on record in US20260209220A1, “SUBSTITUTED TETRAHYDROPYRROLO-PYRIDINONE COMPOUNDS AND THEIR USE IN TREATING MEDICAL CONDITIONS” (Karuna Therapeutics, Inc., priority 2022, published 2026).

Amino acid sequences for entries named in this document (tags omitted).
UniProt P08173, whole entry: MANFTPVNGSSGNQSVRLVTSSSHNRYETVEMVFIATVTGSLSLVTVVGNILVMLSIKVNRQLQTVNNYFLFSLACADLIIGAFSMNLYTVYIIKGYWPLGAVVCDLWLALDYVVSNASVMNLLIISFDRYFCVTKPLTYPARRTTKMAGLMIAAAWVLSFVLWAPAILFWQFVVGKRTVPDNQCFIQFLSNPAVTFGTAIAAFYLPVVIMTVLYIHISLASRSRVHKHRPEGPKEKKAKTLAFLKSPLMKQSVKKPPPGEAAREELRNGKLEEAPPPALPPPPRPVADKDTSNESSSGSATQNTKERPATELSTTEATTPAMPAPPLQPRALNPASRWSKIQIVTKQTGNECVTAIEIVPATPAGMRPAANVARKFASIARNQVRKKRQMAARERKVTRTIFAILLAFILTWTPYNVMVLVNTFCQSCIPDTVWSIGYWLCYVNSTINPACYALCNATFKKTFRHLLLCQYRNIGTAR
UniProt P08485, whole entry: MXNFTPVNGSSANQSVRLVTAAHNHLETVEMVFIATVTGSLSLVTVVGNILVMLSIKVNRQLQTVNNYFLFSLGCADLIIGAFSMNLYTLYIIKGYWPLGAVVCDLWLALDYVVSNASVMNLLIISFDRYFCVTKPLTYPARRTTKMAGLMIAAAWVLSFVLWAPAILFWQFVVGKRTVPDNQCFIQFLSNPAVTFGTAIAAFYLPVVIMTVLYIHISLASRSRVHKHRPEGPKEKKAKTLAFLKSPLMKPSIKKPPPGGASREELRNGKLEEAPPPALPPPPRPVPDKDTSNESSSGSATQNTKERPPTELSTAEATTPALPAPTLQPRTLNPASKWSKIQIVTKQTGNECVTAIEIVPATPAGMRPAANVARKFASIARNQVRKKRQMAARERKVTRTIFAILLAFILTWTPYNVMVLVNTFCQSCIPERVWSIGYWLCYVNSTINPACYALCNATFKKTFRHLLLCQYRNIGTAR

One assay concerns the target hM4 receptors (Homo sapiens, UniProt P08173). As to the kind of experiment: Human M4 PAM PERK assay (CHO cells, TR-FRET, with EC20 acetylcholine). The following applies: read-out: Human M4 PAM pERK EC50. The procedure: (§1) Chinese hamster ovary (CHO) cells expressing either hM4 or rM4 receptors were frozen in assay ready vials (5×10^6 cells/vial) after bulking-up in culture. The day before an assay, vial(s) were thawed and cells seeded in 384 well white proxiplates at 1000/well for hM4 cells and at 2000/well for rM4 cells, in 10 μL of growth media (Hams/F12 with glutamax and 10% FCS) and incubated overnight at 37° C./5% CO2.
(§2) On the following morning, the growth media was removed by ‘flicking out’ over a bin, patting the inverted plate onto tissue, and then replacing with 10 μL of wash media (Hams/F12 with glutamax and 8 mM HEPES, NB: serum free). Then, the wash media was removed in the same way and replaced with 8 μL/well of the serum free media. Plates were then re-incubated for a further 4 hours at 37° C./5% CO2. […]
(§3) After the 4-hour incubation in serum free media, a 4 μL aliquot of the 3×compound solution containing an EC20 of acetylcholine (10 nM final concentration) was added to the cell plate using a 384 well plate to plate transfer. […] Then, a final addition of 4 μL/well of antibody detection mix, containing both the Europium-Cryptate (donor) and d2 (acceptor) tagged detection components, was added followed by a further 2-hour incubation at RT, and then the plate was read using a TR-FRET (time resolved fluorescence resonance energy transfer) based protocol.
For orientation: In TR-FRET formats the signal depends on donor and acceptor labels being close together.

In another assay the target is rM4 receptors (Rattus norvegicus, UniProt P08485). As to the kind of experiment: Rat M4 PAM PERK assay (CHO cells, TR-FRET, with EC20 acetylcholine). The following applies: read-out: Rat M4 PAM pERK EC50. The procedure: as §1, §2, §3
In another assay the target is human M4 receptor (Homo sapiens, UniProt P08173). As to the kind of experiment: M4 GTPγS PAM assay (CHO-K1 membranes, 35S-GTP binding, with EC20 acetylcholine). The following applies: read-out: Human M4 PAM GTPγS EC50, with EC20 acetylcholine (40 nM). The procedure:
The M4 GTPγS PAM method was used. Membranes were prepared for GTPgS binding assays from CHO-K1 cells stably expressing human M4 receptor. Briefly, cells were grown in 5-layer cell culture flasks. Cells were washed with 50 mL of PBS and then dissociated with 0.05% trypsin. Dissociated cells were then collected by centrifugation at 650×g for 8 minutes at 4° C. Pellets were washed again in PBS by centrifugation and resuspended in 30 mL of 20 mM HEPES, 10 mM EDTA, pH 7.4. After sitting on ice for 30 min, membranes were collected by centrifugation at 50000×g for 15′ at 4° C., resuspended in 30 mL of 20 mM HEPES, 0.1 mM EDTA, pH 7.4 and collected again by centrifugation. Pellets were then washed twice by centrifugation in 30 mL of 20 mM HEPES, pH 7.4, and stored at −80° C. until the day of the assay. On the day of the assay, pellets were thawed on ice and resuspended in 1 mL of 20 mM HEPES, pH 7.4, 10 mM MgCl2, 100 mM NaCl using dounce homogenization. Membrane protein concentration is determined by BCA protein assay (Promega, Madison, WI) according to Promega guidelines. […]
Plates were then incubated, with shaking, for an additional 10-15 minutes. […] Plates are top and bottom sealed before being read on TopCount scintillation counter (Perkin Elmer, Waltham, MA).

By EC50 is commonly meant the concentration needed to bring the measured effect to its halfway point. Consider `Cc1c2c(n(CC3CC3)c(=O)c1Cl)CN(C(=O)CC1CN(c3cncnc3)C1)C2`, for which the EC50 at hM4 receptors is below 50 nM; on rM4 receptors it was 50 to 200 nM; at human M4 receptor, 50 to 200 nM.
